Target: recombinant human ABCB1 membranes (Homo sapiens, UniProt P08183)
Details: 50 μM

Protein sequences, listed by entry. Tags and fused reporters are not part of them.
UniProt P08183, whole entry: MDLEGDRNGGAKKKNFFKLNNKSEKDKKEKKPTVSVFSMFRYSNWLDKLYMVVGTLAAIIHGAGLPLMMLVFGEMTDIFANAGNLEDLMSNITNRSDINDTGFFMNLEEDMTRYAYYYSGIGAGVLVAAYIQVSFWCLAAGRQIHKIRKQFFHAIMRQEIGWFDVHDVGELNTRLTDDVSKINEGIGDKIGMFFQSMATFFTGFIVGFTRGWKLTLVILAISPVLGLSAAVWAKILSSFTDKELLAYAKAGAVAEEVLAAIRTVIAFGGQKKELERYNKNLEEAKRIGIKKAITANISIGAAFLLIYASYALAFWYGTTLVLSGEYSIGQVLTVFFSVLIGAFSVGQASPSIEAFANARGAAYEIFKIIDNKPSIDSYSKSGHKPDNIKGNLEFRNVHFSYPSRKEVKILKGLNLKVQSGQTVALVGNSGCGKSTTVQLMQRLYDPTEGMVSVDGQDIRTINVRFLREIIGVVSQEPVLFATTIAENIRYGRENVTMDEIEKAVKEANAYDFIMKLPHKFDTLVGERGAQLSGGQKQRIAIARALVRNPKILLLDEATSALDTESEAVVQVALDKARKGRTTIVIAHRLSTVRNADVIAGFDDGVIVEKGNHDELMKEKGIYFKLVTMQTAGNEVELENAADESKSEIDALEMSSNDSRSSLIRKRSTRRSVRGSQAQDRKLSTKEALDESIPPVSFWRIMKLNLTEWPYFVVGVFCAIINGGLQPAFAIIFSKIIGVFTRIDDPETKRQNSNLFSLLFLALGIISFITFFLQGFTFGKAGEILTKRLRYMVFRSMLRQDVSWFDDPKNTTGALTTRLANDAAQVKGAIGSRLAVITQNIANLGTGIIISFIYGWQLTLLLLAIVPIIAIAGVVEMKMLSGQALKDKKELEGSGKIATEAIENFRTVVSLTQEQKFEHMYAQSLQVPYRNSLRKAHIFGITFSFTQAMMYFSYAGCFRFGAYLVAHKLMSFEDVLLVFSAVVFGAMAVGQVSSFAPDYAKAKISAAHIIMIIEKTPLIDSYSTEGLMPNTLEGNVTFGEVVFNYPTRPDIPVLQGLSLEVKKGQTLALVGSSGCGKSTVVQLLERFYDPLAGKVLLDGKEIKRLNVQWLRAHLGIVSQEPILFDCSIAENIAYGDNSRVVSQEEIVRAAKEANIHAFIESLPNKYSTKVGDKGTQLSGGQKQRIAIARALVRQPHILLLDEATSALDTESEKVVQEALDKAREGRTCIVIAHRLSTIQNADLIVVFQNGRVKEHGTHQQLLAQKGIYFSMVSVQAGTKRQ

CC(=O)O[C@@]12CO[C@@H]1C[C@H](O)[C@@]1(C)C(=O)[C@H](O)C3=C(C)[C@@H](OC(=O)[C@H](O)[C@@H](NC(=O)OC(C)(C)C)c4ccccc4)C[C@@](O)([C@@H](OC(=O)c4ccccc4)[C@H]21)C3(C)C [docetaxel]
stimulation of ABCB1 ATPase activity: ~150%

From patent US20180153850A1, “COMPOSITIONS AND METHODS FOR TREATMENT OF CANCER” (The Regents of the University of California, priority 2015, published 2018)
